# Data as given in publication PMC5933457, “Probing biological activity through structural modelling of ligand-receptor interactions of 2,4-disubstituted thiazole retinoids” (Bioorganic & Medicinal Chemistry, 2018).
# Chains of the proteins cited; added tags and fusions are not shown. Residues count along the entry.
# UniProt P10826, 183-417 limits assumed: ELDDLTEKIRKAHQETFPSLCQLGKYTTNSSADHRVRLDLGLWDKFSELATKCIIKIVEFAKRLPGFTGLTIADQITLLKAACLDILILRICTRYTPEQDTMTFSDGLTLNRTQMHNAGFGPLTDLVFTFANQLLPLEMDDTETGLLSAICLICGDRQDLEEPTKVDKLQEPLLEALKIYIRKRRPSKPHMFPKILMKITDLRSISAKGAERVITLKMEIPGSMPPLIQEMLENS
# Target: T1, RARβ ligand-binding domain (GST-RAR-β-LBD) (Homo sapiens, UniProt P10826)
# T1 construct: purchased Invitrogen
# Test: LanthaScreen TR-FRET RARβ co-activator (receptor binding) assay
# Type: biochemical
# Settings: in words, Fig. 6B
# Experimental: These predictions were tested through a receptor-binding assay for each RAR isotype (Fig. 6), where the assay signal is dependent on two parameters: the binding affinity of ligand to the RAR LBD, and the affinity of the coactivator for the ligand-LBD complex. […]
# The binding interaction of each retinoid with RARα, β and γ were determined in vitro by time-resolved fluorescence resonance energy transfer (TR-FRET) using the LanthaScreen TR-FRET RARα, RARβ, and RARγ co-activator assays according to the manufacturer’s (Invitrogen™) instructions.[23] […] Each ligand assay was performed in duplicate and measured using a PHERAstar FS Microplate Reader (BMG Labtech, Ortenberg, Germany) with instrument settings as described in the manufacturer’s instructions for LanthaScreen assays. The TR-FRET signal was expressed as the ratio of the signals at 520 nm and 490 nm. […]
# The readout of the Lanthascreen TR-FRET binding assay is based on a Forster resonance energy transfer (FRET) signal generated from the interaction between a terbium-labelled anti-glutathione-S-transferase (GST) antibody and a fluorescein-labelled coactivator peptide. […]
smiles,measurement,value
"CC1=C(/C=C/C(C)=C/C=C/C(C)=C/C(=O)O)C(C)(C)CCC1 [ATRA, all-trans-retinoic acid, reference compound]","binding-curve upper asymptote (coactivator recruitment), RARβ",high asymptotes
